Structures are written as SMILES. Entries after “also recorded” stand apart in the source; their conditions may differ.

For assay [1], the system named is human iPSC-derived dopamine neurons. In words: Mitochondrial membrane potential measured by TMRM. It counts as cell-based. The conditions noted are these: levodopa after inhibition of complex III (myxothiazol) and ANT (carboxyatractyloside). Here is the method:
To monitor changes in mitochondria membrane potential, dopaminergic neurons were loaded with 20 nM TMRM for 45 min, washed, and maintained in 2 nM TMRM during imaging. Cells were exposed at 550 nm for 50 ms, and time-lapse images were captured every 30 sec. After imaging approximately 15 min to establish stable baselines, complex III inhibitor myxothiazol (2 μM) and adenine nucleotide translocase inhibitor carboxyatractyloside (1 μM) were added to perfusion buffer for the remainder of the imaging. Thirty minutes later, cells were treated with 100 μM levodopa and imaging continued for an additional 30 min; to test MAO inhibition, 10 μM rasagiline/5 μM clorgyline were added 30 min prior to 100 μM levodopa. Regions of interest with stable baseline fluorescence (less than 15% variation) were individually fit with centered, second order polynomial regressions (average r^2>0.90 in all experiments), using data from the thirty minutes following complex III/ANT inhibition (prior to levodopa administration). The mitochondrial polarization index was calculated by dividing observed data by modeled data; deviation of polarization indices from 1.0 indicated deviation from decay trajectory.

For assay [2], the system named is substantia nigra pars compacta dopaminergic neurons. Put plainly: Ex vivo brain slice cytosolic oxidant stress, cyto-roGFP probe, two photon microscopy. It counts as cell-based, mouse. The conditions noted are these: for axonal cytosolic stress / cytosolic stress in distal dendrites / somatic cytosolic stress / dendritic cytosolic stress with monoamine oxidase-B inhibited / terminal cytosolic stress with monoamine oxidase-B inhibited: 10 μM methamphetamine or 100 μM levodopa; for dendritic cytosolic stress with monoamine oxidase-B inhibited / terminal cytosolic stress with monoamine oxidase-B inhibited: with 10 μM rasagiline; for cytosolic stress under conditions of monoamine oxidase-B inhibition: Example 1 summary; for cytosolic oxidant stress: cell bodies, dendrites, striatal axons, methamphetamine 10 μM, levodopa 100 μM. As to the method: Animals and treatment paradigms: Male C57/B16 and TH-mitoroGFP (Guzman et al., 2010 Nature p. 696; incorporated by reference in its entirety) mice 5-8 wks of age were used for all imaging studies. In addition to the TH-mitoroGFP transgenic line, roGFP was virally delivered into the SNc of C57/B16 mice (either targeting cytosolic or mitochondrial compartments). For dopamine depletion experiments, mice were administered 5 mg/kg reserpine for 5 consecutive days and sacrificed on the 5th day (Day et al., 2006 Nat Neurosci p. 251; incorporated by reference in its entirety). For stereological investigations, mice were administered saline, 5 mg/kg methamphetamine, or 5 mg/kg methamphetamine with a 30 min pretreatment of 1 mg/kg rasagiline for 14 consecutive days and sacrificed after 14 days withdrawal.
Two photon microscopy: Ex vivo slices of the dorsolateral striatum or SNc were prepared and redox status determined as previously described (Guzman et al., 2010 Nature p. 696; incorporated by reference in its entirety). Oxidant stress was measured in control slices, with bath application of 10 μM methamphetamine or preincubated with 100 μM levodopa. The dynamic range of the probe was determined by perfusing 2 mM dithiothreitol (DTT) to fully reduce the probe and 200 μM aldrithiol to fully oxidize the probe; data presented as % relative oxidation.
(§1) Stereotaxic surgery: PCR amplified roGFP, mitoroGFP and IMSroGFP inserts were subcloned into pFB-TH-SV40pA vector between EcoR1 and SalI sites. After sequence and expression verification, pFB-TH-roGFP vectors were packaged into rAAVs using serotype 9 with titers 2.1-×10^13 viral genome copies/ml (Virovek). Mice were anesthetized using an isoflurane precision vaporizer (Smiths Medical PM) and placed in a stereotaxic frame (David Kopf Instruments) with a Cunningham adaptor (Harvard Apparatus) to maintain anesthesia delivery throughout surgery. After exposing the skull, a small hole was drilled and 350 nL of AAV9-TH-cytosolic roGFP or AAV9-TH-mitoroGFP delivered via a glass micropipette (Drummond Scientific Company) pulled on a Sutter P-97 puller. The substantia nigra pars compacta (SNc) was targeted at the following coordinates: AP: −3.05, ML: 1.20, and DV −4.30. All surgeries were performed in wild-type mice. Experiments in animals with stereotaxic delivery of AAV viral vectors were performed after at least 10 days post-op.
(§2) Once perfused the brain was rapidly removed and either saggital or coronal slices containing the dorsolateral striatum (275 μm thick) or the SNc (220 μm thick) sectioned using a vibratome (VT1200S Leica Microsystems). Slices were transferred to a holding chamber containing normal aCSF containing in mM: 124.0 NaCl, 3.0 KCl, 2.0 CaCl2, 1.0 MgCl2, 26 NaHCO3, 1.0 NaH2PO4, and 16.66 glucose and allowed at least 30-40 minutes to recover prior to experiments. All solutions were pH 7.4, 310-320 mOsm and continually bubbled with 95% O2/5% CO2.
Ex vivo redox measurements and two photon microscopy: Oxidant stress was assessed using the redox sensitive roGFP probe targeted either to the cytosol or mitochondrial matrix as previously described.^10 Slices were transferred to a recording chamber and continuously perfused with normal aCSF at 32-34° C. Fluorescence was measured using an Ultima Laser Scanning Microscope system (Bruker) with a DODT contrast detector to provide bright-field transmission images with an Olympus 60/0.9NA lens. A two-photon laser (Chameleon Ultra II, Coherent Inc.) tuned to 920 nm was used to excite roGFP. Time series image acquisitions of the roGFP probe were obtained with 60 frames obtained over ˜20 seconds with 0.195 μm×0.195 μm pixels and 10-12 μsec dwell times. The dynamic range of the probe was determined with 2 mM dithiothreitol, a reducing agent, and 200 μM aldrithiol, an oxidizing agent, which were sequentially perfused and t-series acquired with each to determine the maximal and minimal fluorescence intensity. […]

The test system is the same in assay [3]. Put plainly: Ex vivo brain slice mitochondrial oxidant stress, mito-roGFP probe, two photon microscopy. Type of assay: cell-based, mouse. The settings on record: for somatic mitochondrial stress / mitochondrial stress at dopamine release sites: 10 μM methamphetamine or 100 μM levodopa; for mitochondrial stress at dopamine release sites: Example 1. Here is the method:
Animals and treatment paradigms: Male C57/B16 and TH-mitoroGFP (Guzman et al., 2010 Nature p. 696; incorporated by reference in its entirety) mice 5-8 wks of age were used for all imaging studies. In addition to the TH-mitoroGFP transgenic line, roGFP was virally delivered into the SNc of C57/B16 mice (either targeting cytosolic or mitochondrial compartments).
Two photon microscopy: Ex vivo slices of the dorsolateral striatum or SNc were prepared and redox status determined as previously described (Guzman et al., 2010 Nature p. 696; incorporated by reference in its entirety). […] The dynamic range of the probe was determined by perfusing 2 mM dithiothreitol (DTT) to fully reduce the probe and 200 μM aldrithiol to fully oxidize the probe; data presented as % relative oxidation.
as §1
as §2, with “Ex vivo slice preparation: Mice were terminally anesthetized with a mixture of ketamine (50 mg/kg)/xylazine (4.5 mg/kg) and transcardially perfused with ice cold modified artificial cerebrospinal fluid (aCSF) containing in mM: 124.0 NaCl, 3.0 KCl, 1.0 CaCl2, 2.0 MgCl2, 26 NaHCO3, 1.0 NaH2PO4, and 16.66 glucose. Once” for “Once”
Ex vivo redox measurements and two photon microscopy: Oxidant stress was assessed using the redox sensitive roGFP probe targeted either to the cytosol or mitochondrial matrix as previously described.^10 Slices were transferred to a recording chamber and continuously perfused with normal aCSF at 32-34° C. Fluorescence was measured using an Ultima Laser Scanning Microscope system (Bruker) with a DODT contrast detector to provide bright-field transmission images with an Olympus 60/0.9NA lens. A two-photon laser (Chameleon Ultra II, Coherent Inc.) tuned to 920 nm was used to excite roGFP. Time series image acquisitions of the roGFP probe were obtained with 60 frames obtained over ˜20 seconds with 0.195 μm×0.195 μm pixels and 10-12 μsec dwell times.

Where [4] appears, read: mice lacking both MAO-A and MAO-B, methamphetamine 10 μM, levodopa 100 μM.
Setting [5] is: 10 μM drug alone, relative to control (aCSF), dorsolateral striatum slices.

For the compound `N[C@@H](Cc1ccc(O)c(O)c1)C(=O)O` [levodopa, L-3,4-dihydroxyphenylalanine], the “TMRM fluorescence decay / polarization index” value in assay [1] was “consistently slowed the decline in TMRM fluorescence; also recorded: caused a significant deviation; also recorded: trajectory of the decay was changed”. For the same compound, in assay [2], the axonal cytosolic stress entry was “had no effect on cytosolic stress”; the “cytosolic stress in distal dendrites” value is “had no effect on cytosolic stress”; the somatic cytosolic stress result is “unaffected; also recorded: unaltered”; the “dendritic cytosolic stress with monoamine oxidase-B inhibited” value is “only increased by meth and levodopa when monoamine oxidase-B was inhibited”. In addition, in assay [2], the “terminal cytosolic stress with monoamine oxidase-B inhibited” value is “only increased by meth and levodopa when monoamine oxidase-B was inhibited”; the “cytosolic stress under conditions of monoamine oxidase-B inhibition” value was “increased”; the cytosolic oxidant stress entry was “unaffected; also recorded: had no effect on cytosolic oxidant stress”. In addition, in assay [3], the somatic mitochondrial stress result is “neither drug had any effect on somatic mitochondrial redox status; also recorded: unchanged” and the “mitochondrial stress at dopamine release sites” value is recorded as “selectively increased mitochondrial stress at dopamine release sites”. For the same compound, in assay [3] (100 μM levodopa alone), the dendritic mitochondrial stress entry is listed as “increased”. In assay [3] (100 μM levodopa alone, relative to control), the “axonal (terminal) mitochondrial stress” value was “significantly increased mitochondrial oxidant stress selectively in axons; also recorded: increased axonal mitochondrial stress”. Also, the axonal mitochondrial stress entry in assay [3] (setting [4]) was “Neither methamphetamine nor levodopa increased axonal mitochondrial oxidant stress; also recorded: neither +methA (10 μM) or +1-dopa (100 μM) had any effect”.
For `CNC(C)Cc1ccccc1` (centres unmarked) [methamphetamine, N-methylamphetamine], in assay [2], the axonal cytosolic stress result is on record as “had no effect on cytosolic stress”; the “cytosolic stress in distal dendrites” value is recorded as “had no effect on cytosolic stress”; the somatic cytosolic stress entry is “unaffected; also recorded: unaltered”; the “dendritic cytosolic stress with monoamine oxidase-B inhibited” value is “only increased by meth and levodopa when monoamine oxidase-B was inhibited”. In assay [2], the “terminal cytosolic stress with monoamine oxidase-B inhibited” value is “only increased by meth and levodopa when monoamine oxidase-B was inhibited”; the “cytosolic stress under conditions of monoamine oxidase-B inhibition” value is “increased”; the cytosolic oxidant stress result is on record as “unaffected; also recorded: failed to increase cytosolic oxidant stress”. The axonal mitochondrial stress entry in assay [3] (1 μM methamphetamine alone, relative to control) was “had no measurable effect on mitochondrial redox status; also recorded: not significantly altered”. In addition, the axonal mitochondrial stress result in assay [3] (1 μM methamphetamine combined with 15 mM KCl) is “significant elevation in mitochondrial oxidant stress; also recorded: increased by the combination of +methA and +KCl”. Moreover, the “axonal (terminal) mitochondrial stress” value in assay [3] (setting [5]) is reported as “significantly increased mitochondrial oxidant stress selectively in axons; also recorded: increased axonal mitochondrial stress”. In addition, in assay [3] (10 μM methamphetamine alone), the dendritic mitochondrial stress entry was “increased”. Further, in assay [3], the somatic mitochondrial stress result was “neither drug had any effect on somatic mitochondrial redox status; also recorded: unchanged” and the “mitochondrial stress at dopamine release sites” value is “selectively increased mitochondrial stress at dopamine release sites”. For the same compound, the “axonal (terminal) mitochondrial stress” value in assay [3] (10 μM methamphetamine, slices from reserpinized mice) is given as “had no effect on terminal mitochondrial stress; also recorded: had no effect on axonal mitochondrial stress”. Besides, the axonal mitochondrial stress result in assay [3] (setting [4]) was “Neither methamphetamine nor levodopa increased axonal mitochondrial oxidant stress; also recorded: neither +methA (10 μM) or +1-dopa (100 μM) had any effect”.
`COC(=O)C(c1ccccc1)C1CCCCN1` (centres unmarked) [methylphenidate]: the axonal mitochondrial stress result is on record as “had no effect” in assay [3] (5 μM drug alone, relative to control) and “had no effect on mitochondrial oxidant stress” in assay [3] (5 μM drug alone, relative to control, listed as methyphenidate).
With `C[C@H](N)Cc1ccccc1` [d-amphetamine, dextroamphetamine], the “axonal (terminal) mitochondrial stress” value in assay [3] (setting [5]) is “increased mitochondrial oxidant stress in SNc DA axons in a MAO-dependent manner; also recorded: increased axonal mitochondrial stress”.
As to `COC(=O)[C@H]1[C@H]2C[C@@H]3c4[nH]c5cc(OC)ccc5c4CCN3C[C@H]2C[C@@H](OC(=O)c2cc(OC)c(OC)c(OC)c2)[C@@H]1OC` [reserpine], in assay [3] (mice pretreated with reserpine (5 mg/kg, five days), depletion of vesicular DA), the “effect of reserpine pretreatment on the mitochondrial redox effects of methamphetamine” value is “eliminated the mitochondrial redox effects of methamphetamine”.

Source of the values: US11554103B2, “Compositions and methods to reduce pharmaceutical-induced toxicity” (priority 2016, dated 2023).
